{"source": "paper PMC8515052", "about": "“PepVAE: Variational Autoencoder Framework for Antimicrobial Peptide Generation and Activity Prediction” (Frontiers in Microbiology, 2021)", "origin": "cited, not measured here", "test_system": "E. coli NCIMB 11843", "set-up": "method as in Norberg et al., 2011", "conditions": "ref Norberg et al., 2011; cited from earlier work", "data": [{"sequence": "VLNENLLA [caseicin B-B1]", "values": [{"measurement": "MIC", "value": "≥ 1250", "unit": "µM"}]}]}
